Read-outs that look alike come from different tables or passages of the source.

This is an account of results in patent publication US9326972B2, “Use of phenylmethimazoles, methimazole derivatives, and tautomeric cyclic thiones for the treatment of autoimmune/inflammatory diseases associated with toll-like receptor overexpression” (Ohio University, priority 2004, dated 2016).

The test system of the test is TLR3, MHC Class I, PKR, IP-10 mRNA in FRTL-5 cells. The note with it: FRTL-5, 100 U/ml IFN.

B1: IFN-β: Type I IFN, from Biosource International (protein, UniProt P01574 22-187, looked up)
Interferon beta: MSYNLLGFLQRSSNFQCQKLLWQLNGRLEYCLKDRMNFDIPEEIKQLQQFQKEDAALTIYEMLQNIFAIFRQDSSSTGWNETIVENLLANVYHQINHLKTVLEEKLEKEDFTRGKLMSSLHLKRYYGRILHYLKAKEYSHCAWTIVRVEILRNFYFINRLTGYLRN
Take B1: under “1 hr”, the “GAPDH mRNA, % of Control at 0 Time (±15%)” value (shortened to “GAPDH mRNA, % of Control”) is on record as 100 % of Control at 0 Time; the “IP-10 mRNA, % of Control at 0 Time (±15%)” value (from here on “IP-10 mRNA, % of Control”) was 100 % of Control at 0 Time; the “MHC Class I mRNA, % of Control at 0 Time (±15%)” value (“MHC Class I mRNA, % of Control” for short) is on record as 100 % of Control at 0 Time; the “PKR mRNA, % of Control at 0 Time (±15%)” value is 100 % of Control at 0 Time. Further, where the note is “1 hr”, the “TLR3 mRNA, % of Control at 0 Time (±15%)” value is 100 % of Control at 0 Time. Besides, under “3 hr”, the “GAPDH mRNA, % of Control” value is 100 % of Control at 0 Time; the “IP-10 mRNA, % of Control” value was 580 % of Control at 0 Time; the “MHC Class I mRNA, % of Control” value is 300 % of Control at 0 Time; the “PKR mRNA, % of Control at 0 Time (±15%)” value is reported as 500 % of Control at 0 Time. Besides, the “TLR3 mRNA, % of Control at 0 Time (±15%)” value (3 hr) is reported as 550 % of Control at 0 Time. In addition, where the note is “6 hr”, the “GAPDH mRNA, % of Control” value is listed as 100 % of Control at 0 Time; the “IP-10 mRNA, % of Control” value is listed as 300 % of Control at 0 Time; the “MHC Class I mRNA, % of Control” value is reported as 400 % of Control at 0 Time; the “PKR mRNA, % of Control at 0 Time (±15%)” value is 450 % of Control at 0 Time. In addition, for the setting “6 hr”, the “TLR3 mRNA, % of Control at 0 Time (±15%)” value was 450 % of Control at 0 Time. Also, where the note is “12 hr”, the “GAPDH mRNA, % of Control” value is 100 % of Control at 0 Time; the “IP-10 mRNA, % of Control” value was 200 % of Control at 0 Time; the “MHC Class I mRNA, % of Control” value is 425 % of Control at 0 Time; the “PKR mRNA, % of Control at 0 Time (±15%)” value is 450 % of Control at 0 Time. Also, the “TLR3 mRNA, % of Control at 0 Time (±15%)” value (12 hr) is 250 % of Control at 0 Time.
